Measurements as given in publication PMC3150407, “Differential Inhibitor Sensitivity between Human Kinases VRK1 and VRK2” (PLoS ONE, 2011).

Target: T1, human VRK1 (Homo sapiens, UniProt Q99986)
T1 construct: made in house
T1 sequence (Q99986 1-396): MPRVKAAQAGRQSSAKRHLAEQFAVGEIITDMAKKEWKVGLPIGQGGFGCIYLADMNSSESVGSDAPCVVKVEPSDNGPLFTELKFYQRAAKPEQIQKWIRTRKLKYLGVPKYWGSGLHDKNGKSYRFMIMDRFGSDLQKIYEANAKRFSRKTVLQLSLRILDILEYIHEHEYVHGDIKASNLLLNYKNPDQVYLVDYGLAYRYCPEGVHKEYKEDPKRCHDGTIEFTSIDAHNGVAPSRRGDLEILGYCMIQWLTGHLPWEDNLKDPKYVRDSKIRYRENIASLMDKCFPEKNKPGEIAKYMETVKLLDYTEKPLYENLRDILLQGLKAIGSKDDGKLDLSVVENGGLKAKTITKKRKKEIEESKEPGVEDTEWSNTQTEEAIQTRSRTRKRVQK
Experiment: In vitro kinase assay, VRK1 kinase activity (autophosphorylation and H3 phosphorylation)
Assay type: biochemical
Settings: concentration not given

CC[C@H](CO)Nc1nc(NCc2ccccc2)c2ncn(C(C)C)c2n1 [Roscovitine, 2-(R)-(1-Ethyl-2-hydroxyethylamino)-6-benzylamino-9-isopropylpurine]
Effect on VRK1 activity, concentration not stated (in words): not inhibited at much higher concentrations
